Laboratory results: patent publication US20240342161A1, “BISBENZYLISOQUINOLINES AS CONDITIONING AGENTS FOR IMMUNE THERAPY” (priority 2023, published 2024)
Read-outs that look alike come from different tables or passages of the source.

Experiments:
β-catenin = β-catenin protein level in K562 cell extracts by western blot; details: K562 cells treated with >10 uM
beta-Actin = beta-Actin level in K562 cell extracts by western blot; details: K562 cells treated with up to 40 uM
CAMKII gamma = CAMKII gamma (Homo sapiens, UniProt Q13555); assay: CAMKII gamma kinase activity (ADP Glo); assay type: biochemical; details: 10 uM ATP, inhibitor 250 uM
[1] = system: human chronic myeloid leukemia (CML) progenitors; details: colony number, methylcellulose-based medium
[2] = system: CML colonies, secondary clonal growth; details: colonies from original cultures with ES-3000 @ 10 μM
bcr-abl = details: 10 μM; for abl only / bcr-abl and abl colonies / bcr-abl only / both negative: number of colonies
[3] = system: human breast, colon carcinoma, and hepatoma cell lines; details: read-out: IC50 range; cited from earlier work
[4] = system: human colorectal (HCT116) cells; details: cited from earlier work
[5] = system: colorectal (CT-26) mouse xenografts; details: cited from earlier work
[6] = IV, cited from earlier work
[7] = cited from earlier work
[8] = Primary colonies, of 17 analysed
[9] = Secondary colonies, of 10 analysed

SMILES: COc1ccc2cc1Oc1ccc(cc1)C[C@H]1c3cc(c(OC)cc3CCN1C)Oc1c(OC)c(OC)cc3c1[C@H](C2)N(C)CC3
- beta-catenin level (quantitation of protein bands) (β-catenin): significantly less
- beta-Actin level (quantitation of protein bands) (beta-Actin): not affected significantly
- % DMSO (CAMKII gamma): 9%
- BFU-E ([1]; 0.1 μM): 22 ± 4
- CFU-E ([1]; 0.1 μM): 11 ± 1
- CFU-GM ([1]; 0.1 μM): 55 ± 5
- Total CFC ([1]; 0.1 μM): 88 ± 8
- Total Erythroid ([1]; 0.1 μM): 33 ± 3
- BFU-E ([1]; 1 μM): 22 ± 4
- CFU-E ([1]; 1 μM): 10 ± 2
- CFU-GM ([1]; 1 μM): 54 ± 2
- Total CFC ([1]; 1 μM): 86 ± 4
- Total Erythroid ([1]; 1 μM): 33 ± 3
- BFU-E ([1]; 3 μM): 14 ± 3
- CFU-E ([1]; 3 μM): 9 ± 2
- CFU-GM ([1]; 3 μM): 52 ± 5
- Total CFC ([1]; 3 μM): 75 ± 6
- Total Erythroid ([1]; 3 μM): 23 ± 2
- CFU-GM ([1]; 10 μM): 26 ·
- Total CFC ([1]; 10 μM): 26 ···
- average CFC per well [2]: three
- wells supported secondary growth with one or more colony [2]: 54.2%
- abl only (bcr-abl; Primary colonies): 1
- bcr-abl and abl colonies (bcr-abl; Primary colonies): 11
- bcr-abl only (bcr-abl; Primary colonies): 1
- both negative (bcr-abl; Primary colonies): 4
- colonies abl positive only (bcr-abl; [8]): 5.8%
- colonies bcr-abl and abl positive (bcr-abl; [8]): 65%
- colonies bcr-abl positive only (bcr-abl; [8]): 5.8
- colonies negative for both targets (bcr-abl; [8]): 23.5%
- colonies bcr-abl and abl positive (bcr-abl; Primary colonies, of 17 analysed, listed as Tetrandrine): 64.7%
- abl only (bcr-abl; Secondary colonies): 1
- bcr-abl and abl colonies (bcr-abl; Secondary colonies): 0
- bcr-abl only (bcr-abl; Secondary colonies): 0
- both negative (bcr-abl; Secondary colonies): 9
- colonies negative for both bcr-abl and abl (bcr-abl; [9]): 90%
- colonies positive for abl only (bcr-abl; [9]): 10%
- IC50 [3]: 1.53 to 10.4 µM
- wnt/β-catenin signaling and tumor growth [4]: inhibit wnt/β-catenin signaling and tumor growth
- tumor growth [5]: reduced tumor growth by inducing apoptosis
- recommended dose for a Phase II study ([6]; daily×5, repeated every 2 weeks): 200 mg/m2
- recommended dose for a Phase II study ([6]; single dose repeated weekly): 300 mg/m2
- protein binding [7]: highly protein bound
